Laboratory results published in patent US9951071B2 (dated 2018).

By UniProt entry, the sequences of proteins in these tests, tags left out.
UniProt P03952, whole entry, looked up: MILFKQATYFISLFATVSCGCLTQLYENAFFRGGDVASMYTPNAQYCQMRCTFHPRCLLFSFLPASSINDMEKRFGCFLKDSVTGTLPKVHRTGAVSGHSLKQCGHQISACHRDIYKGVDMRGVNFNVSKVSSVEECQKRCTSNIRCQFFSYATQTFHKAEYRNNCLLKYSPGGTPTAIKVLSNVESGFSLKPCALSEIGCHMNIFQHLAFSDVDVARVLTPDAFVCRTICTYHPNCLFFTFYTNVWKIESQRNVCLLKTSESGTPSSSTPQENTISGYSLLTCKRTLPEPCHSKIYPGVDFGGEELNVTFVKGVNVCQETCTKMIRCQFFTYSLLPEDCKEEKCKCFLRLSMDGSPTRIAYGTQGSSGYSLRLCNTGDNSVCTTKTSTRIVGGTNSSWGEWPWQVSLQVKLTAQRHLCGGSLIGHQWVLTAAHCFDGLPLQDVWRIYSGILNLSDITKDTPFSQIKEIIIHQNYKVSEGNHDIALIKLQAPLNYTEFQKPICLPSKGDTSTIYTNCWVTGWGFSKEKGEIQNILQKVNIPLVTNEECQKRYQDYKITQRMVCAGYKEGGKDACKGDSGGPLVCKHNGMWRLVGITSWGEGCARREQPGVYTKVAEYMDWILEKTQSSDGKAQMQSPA

Biological target: purified human plasma kallikrein (Homo sapiens (Human), UniProt P03952)
Test: biochemical

SMILES	Ki [nM]
COC(=O)c1ccc2c(c1)-c1cccc(c1)[C@@H](N1CC=C(c3c(F)ccc(Cl)c3F)CC1=O)CCC[C@@H](C)C(=O)N2 [Example 174, Methyl (10R,14S)-14-[4-(3-chloro-2,6-difluorophenyl)-2-oxo-1,2,3,6-tetrahydropyridin-1-yl]-10-methyl-9-oxo-8-azatricyclo[13.3.1.0^2,7]nonadeca-1(19),2,4,6,15,17-hexaene-4-carboxylate]	1400
COC(=O)c1ccc2c(c1)-c1cccc(c1)[C@@H](N1CC=C(c3c(Br)ccc(Cl)c3F)CC1=O)CCC[C@@H](C)C(=O)N2 [Example 176, Methyl (10R,14S)-14-[4-(6-bromo-3-chloro-2-fluorophenyl)-2-oxo-1,2,3,6-tetrahydropyridin-1-yl]-10-methyl-9-oxo-8-azatricyclo[13.3.1.0^2,7]nonadeca-1(19),2,4,6,15,17-hexaene-4-carboxylate]	523
